## Apparent affinities of Ab-91 variants for a coronavirus HR2 peptide

Reference: Engelhart et al. 2022, doi:10.1038/s41597-022-01779-4. File: FLAb, binding data.

Antigen: PDVDLGDISGINAS, a 14-residue peptide of the SARS-CoV-2 spike HR2 region.

The variants keep the light chain, the linker and the frameworks of Ab-91 (scFv order VL, three GGGGS repeats, VH).
VL: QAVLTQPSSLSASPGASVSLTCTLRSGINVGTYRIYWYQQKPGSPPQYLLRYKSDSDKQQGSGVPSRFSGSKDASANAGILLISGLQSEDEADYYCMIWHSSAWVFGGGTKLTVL
VH: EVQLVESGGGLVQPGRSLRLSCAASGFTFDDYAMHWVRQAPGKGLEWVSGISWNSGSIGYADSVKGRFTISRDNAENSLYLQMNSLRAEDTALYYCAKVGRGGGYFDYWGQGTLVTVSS

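The library (AAYL51) carries one to three amino acid substitutions per variant, with no insertions or deletions. AlphaSeq pools MATa yeast showing the antibodies with MATalpha yeast showing the peptide. After mating in shaken culture at 30 °C for 16 h, diploids were selected and their barcode pairs sequenced. Scores were corrected for input abundance and mapped to Kd with protein pairs of known affinity run in the same pool. There are three technical replicates.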

Sequences are complete VH domains.
Values are apparent Kd, the geometric mean of the replicates that gave a signal; lower means stronger binding.
A pair that was not seen in any replicate is written "not detected"; this usually means weak binding, but a binder can also be missed.
Empty control strains, which show no peptide, gave a signal in 21% of pairings with library AAYL51; the median was 34 µM and 95% of these signals were weaker than 1.8 µM. No background was subtracted.

VH | Kd | replicates with signal
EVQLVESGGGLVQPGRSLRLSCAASGFTFDDYAMHWVRQAPGKGLEWVSGISWNSGSIGYADSVTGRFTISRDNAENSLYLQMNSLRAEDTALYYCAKVGRGGGYIDYWGQGTLVTVSS | 48 µM | 1 of 3
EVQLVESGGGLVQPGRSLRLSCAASGFTFDDYAMHWVRQAPGKGLEWVSGISWNSGSIGYADSVSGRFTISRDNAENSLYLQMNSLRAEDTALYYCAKVKRGGGYRDYWGQGTLVTVSS | not detected | 0 of 3
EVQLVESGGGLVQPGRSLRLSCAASCFTFDDYAMHWVRQAPGKGLEWVSGISWNSGSKGYADSVKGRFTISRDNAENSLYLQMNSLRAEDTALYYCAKVGRIGGYFDYWGQGTLVTVSS | not detected | 0 of 3
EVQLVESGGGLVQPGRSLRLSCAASGFTDDDYAMHWVRQAPGKGLEWVSKISWNSGSIGYADSVKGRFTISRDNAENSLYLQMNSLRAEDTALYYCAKVGRGGGYWDYWGQGTLVTVSS | not detected | 0 of 3
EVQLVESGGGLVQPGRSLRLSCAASGFTFDDYAMHWVRQAPGKGLEWVSNIVWNSGSIGYADSVKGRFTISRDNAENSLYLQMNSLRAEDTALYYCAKVGRGGGYFDYWGQGTLVTVSS | 190 µM | 1 of 3
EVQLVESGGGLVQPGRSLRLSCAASGHGFDDYAMHWVRQAPGKGLEWVSGISWNSGSIGYADSVKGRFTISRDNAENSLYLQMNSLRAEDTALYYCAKVGRGGGYMDYWGQGTLVTVSS | not detected | 0 of 3
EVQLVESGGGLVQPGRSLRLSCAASGFKSDDYAMHWVRQAPGKGLEWVSGISWNSGSIGYADSWKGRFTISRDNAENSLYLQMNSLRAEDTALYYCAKVGRGGGYFDYWGQGTLVTVSS | not detected | 0 of 3
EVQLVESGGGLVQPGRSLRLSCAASGFTFDDYAMHWVRQAPGKGLEWVSNWSWNFGSIGYADSVKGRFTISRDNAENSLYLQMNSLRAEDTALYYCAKVGRGGGYFDYWGQGTLVTVSS | not detected | 0 of 3
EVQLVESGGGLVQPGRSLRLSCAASGFTFDDYAMHWVRQAPGKGLEWVSGISWNLGYIGYADSVKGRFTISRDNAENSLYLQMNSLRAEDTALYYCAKVGGGGGYFDYWGQGTLVTVSS | not detected | 0 of 3
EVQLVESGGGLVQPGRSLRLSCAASGFTQDDYTMHWVRQAPGKGLEWVSGISWNSGSIGYADSVKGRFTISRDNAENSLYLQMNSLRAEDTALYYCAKVGRGGVYFDYWGQGTLVTVSS | not detected | 0 of 3
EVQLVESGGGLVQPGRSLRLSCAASGFTFDDYAMHWVRQAPGKGLEWVSGISWNSGSIGYADYVKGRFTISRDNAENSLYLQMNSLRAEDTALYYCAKVGRGGGYFRYWGQGTLVTVSS | 8.6 nM | 3 of 3
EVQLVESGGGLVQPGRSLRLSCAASGFTFDDYAMKWVRQAPGKGLEWVSGIRWNSGSHGYADSVKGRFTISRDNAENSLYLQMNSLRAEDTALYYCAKVGRGGGYFDYWGQGTLVTVSS | not detected | 0 of 3
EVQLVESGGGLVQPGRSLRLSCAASGFTFDDYMMHWVRQAPGKGLEWVSGISWCSGSIGYADSVKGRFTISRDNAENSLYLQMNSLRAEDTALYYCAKVGRTGGYFDYWGQGTLVTVSS | 7.4 µM | 1 of 3
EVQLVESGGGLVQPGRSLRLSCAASGETFDDYAMHWVRQAPGKGLEWVSGISWNSGSILYADSVKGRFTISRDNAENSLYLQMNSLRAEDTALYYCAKVWRGGGYFDYWGQGTLVTVSS | 50 µM | 1 of 3
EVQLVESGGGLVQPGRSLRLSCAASGFTFDDYAMHWVRQAPGKGLEWVSGISWNSPSIGYADSMPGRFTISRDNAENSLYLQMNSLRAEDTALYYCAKVGRGGGYFDYWGQGTLVTVSS | 1.8 µM | 2 of 3
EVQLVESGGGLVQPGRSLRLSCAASGFTFDDYAMHWVRQAPGKGLEWVSGIEWNSGSIGYADSQKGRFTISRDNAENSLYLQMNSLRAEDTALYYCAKVGRGGGYFDFWGQGTLVTVSS | not detected | 0 of 3
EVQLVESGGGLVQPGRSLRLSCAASGFTFDDTAMHWVRQAPGKGLEWVSPISWNSCSIGYADSVKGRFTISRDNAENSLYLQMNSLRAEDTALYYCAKVGRGGGYFDYWGQGTLVTVSS | not detected | 0 of 3
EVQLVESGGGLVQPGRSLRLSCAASGFTFWDYAMHWVRQAPGKGLEWVSGISWNSGSIGYADSVKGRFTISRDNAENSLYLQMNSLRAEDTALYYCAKVGTGGGYFFYWGQGTLVTVSS | not detected | 0 of 3
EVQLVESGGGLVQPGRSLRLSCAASGFTFDDNAMHWVRQAPGKGLEWVSGISWNSGSIGYADSGKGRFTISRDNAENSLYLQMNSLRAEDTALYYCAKVGRGGGYFAYWGQGTLVTVSS | 24 µM | 2 of 3
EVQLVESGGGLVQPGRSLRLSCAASGFTFDDYAMHWVRQAPGKGLEWVSGYSWNSGSIGYAHSVKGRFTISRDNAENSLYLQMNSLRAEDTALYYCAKVGRGGGYNDYWGQGTLVTVSS | not detected | 0 of 3
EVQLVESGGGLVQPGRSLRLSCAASGFTFFDYAMHWVRQAPGKGLEWVSGISWNSGSIGYSDSVKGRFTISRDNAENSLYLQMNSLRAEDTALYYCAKVGRGGSYFDYWGQGTLVTVSS | not detected | 0 of 3